These are literature values, as cited in PMC3638018.

Protein sequences, listed by entry. Tags and fused reporters are not part of them. Residues count along the entry.
UniProt P21583, 26-190: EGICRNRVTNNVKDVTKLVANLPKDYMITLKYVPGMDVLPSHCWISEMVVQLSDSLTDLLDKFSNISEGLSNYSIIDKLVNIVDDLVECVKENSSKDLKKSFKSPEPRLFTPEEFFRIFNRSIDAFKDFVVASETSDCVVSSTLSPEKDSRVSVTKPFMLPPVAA

The target of this data set is c-Kit (Homo sapiens) (UniProt P10721).

In general, Kd refers to the free concentration of one partner at which half of the binding sites on the other are occupied at equilibrium, for simple one-to-one binding. With SCF (from UniProt P21583), the equilibrium dissociation constant (Kd) is 2 nM.
